The values below come from patent US20040122089A1, “Novel eicosanoid analgesics” (priority 2001, published 2004).

Chains of the proteins cited; added tags and fusions are not shown.
UniProt P20272, whole entry: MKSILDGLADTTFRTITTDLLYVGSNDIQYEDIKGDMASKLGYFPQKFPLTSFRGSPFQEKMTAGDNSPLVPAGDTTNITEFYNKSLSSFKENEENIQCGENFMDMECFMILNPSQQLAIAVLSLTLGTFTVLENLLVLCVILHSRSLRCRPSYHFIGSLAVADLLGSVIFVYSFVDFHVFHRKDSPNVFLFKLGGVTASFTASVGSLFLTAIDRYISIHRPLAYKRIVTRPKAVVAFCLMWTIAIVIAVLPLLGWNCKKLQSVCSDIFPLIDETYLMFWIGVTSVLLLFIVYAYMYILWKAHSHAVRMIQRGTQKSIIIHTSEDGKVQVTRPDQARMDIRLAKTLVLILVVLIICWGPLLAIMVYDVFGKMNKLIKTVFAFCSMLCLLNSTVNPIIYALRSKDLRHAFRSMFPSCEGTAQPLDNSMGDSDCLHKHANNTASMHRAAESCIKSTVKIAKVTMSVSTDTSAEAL

pKi: −log10 of the molar value.

Experiment [1] addresses T1, CB1 receptors (Rattus norvegicus, UniProt P20272). Kind of experiment: CB1 receptor binding, [3H]CP55940, whole rat brain membranes (Example 3). The settings on record: read-out: CB1 affinity Ki.
The target in experiment [2] is T1, CB1 receptors. As to the kind of experiment: Agonist-stimulated [35S]GTPγS binding, rat hippocampal membranes. A general note: Binding of GTPγS marks nucleotide exchange on a G protein.

Broadly, the pKi is the negative decadic logarithm of the Ki, by convention in mol/L.

For `CCCCC/C=C\C/C=C\C/C=C\C/C=C\CCCC(=O)N[C@H](C)CO` [Met-AEA, (R)-1′-Methyl-2′-hydroxy-ethyl-arachidonamide, reference compound], the pKi at CB1 receptors [1] was 7.70. Turning to `Cc1c(C(=O)c2cccc3ccccc23)c2cccc3c2n1[C@H](CN1CCOCC1)CO3` [WIN55,212-2, reference compound], the “GTPγS binding (Emax)” value at CB1 receptors [2] turned out to be 51%.
